In article PMC6345973, “IRE1α-XBP1s pathway promotes prostate cancer by activating c-MYC signaling” (Nature Communications, 2019) one finds IC50 data, which are given here for one compound.

The chains behind the UniProt entries cited, without tags or fusion partners. Residues count along the entry.
UniProt O75460, 19-977: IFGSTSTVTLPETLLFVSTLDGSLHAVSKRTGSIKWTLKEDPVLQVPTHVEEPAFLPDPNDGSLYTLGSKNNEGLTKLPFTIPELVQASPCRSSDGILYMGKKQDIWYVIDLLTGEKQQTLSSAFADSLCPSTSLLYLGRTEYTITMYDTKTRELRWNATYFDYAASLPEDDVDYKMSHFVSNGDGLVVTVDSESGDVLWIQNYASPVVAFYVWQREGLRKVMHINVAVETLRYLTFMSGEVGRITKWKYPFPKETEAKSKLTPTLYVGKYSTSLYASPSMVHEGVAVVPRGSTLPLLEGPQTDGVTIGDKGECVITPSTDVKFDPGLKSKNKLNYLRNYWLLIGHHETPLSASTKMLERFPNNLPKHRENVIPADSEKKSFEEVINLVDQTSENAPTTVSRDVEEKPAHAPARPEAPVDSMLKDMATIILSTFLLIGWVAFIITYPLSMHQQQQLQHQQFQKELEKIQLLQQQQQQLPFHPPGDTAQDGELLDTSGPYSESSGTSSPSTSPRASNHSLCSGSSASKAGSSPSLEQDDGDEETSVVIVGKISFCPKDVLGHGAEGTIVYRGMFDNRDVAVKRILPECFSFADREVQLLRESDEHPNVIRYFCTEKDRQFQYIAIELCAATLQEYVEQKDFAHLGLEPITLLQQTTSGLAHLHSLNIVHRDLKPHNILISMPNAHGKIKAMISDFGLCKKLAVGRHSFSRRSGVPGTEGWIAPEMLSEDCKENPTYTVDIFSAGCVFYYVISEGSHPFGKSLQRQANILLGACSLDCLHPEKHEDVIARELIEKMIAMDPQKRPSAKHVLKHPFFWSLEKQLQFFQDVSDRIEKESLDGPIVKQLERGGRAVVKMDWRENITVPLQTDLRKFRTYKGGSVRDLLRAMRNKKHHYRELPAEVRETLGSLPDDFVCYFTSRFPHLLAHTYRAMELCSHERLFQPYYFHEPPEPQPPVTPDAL

This assay deals with T1, IRE1α (Homo sapiens, UniProt O75460).
T1 construct: gene ERN1
As to the kind of experiment: in vitro RNase activity assay of human IRE1α (Supplementary Fig. 2a). The class given is biochemical.

The structures appear in SMILES notation.

As for `COc1cc2c(C)c(CC(=O)N3CCOCC3)c(=O)oc2c(C=O)c1O` [MKC8866], the concentration for half-maximal inhibition (IC50) (in general, the concentration that inhibits the measured activity by half) was found to be 290 nM.
